The data set is described as follows: Toxicity against wild type human HEK 293T cells. Format: cell-based. The settings on record: HEK293T cells (wild type); quercetin analogs alone; human kidney cell line HEK293T.

As a reminder, the CC50 is the concentration giving 50% cytotoxicity.

The molecule `O=c1c(O)c(-c2ccc(O)c(O)c2)oc2cc(O)c(O)c(O)c12` [compound 4, quercetagetin] came in with a CC50 of over 200 µM.

The values are drawn from paper PMC10673258, “Taxifolin as a Metallo-β-Lactamase Inhibitor in Combination with Augmentin against Verona Imipenemase 2 Expressing Pseudomonas aeruginosa” (Microorganisms, 2023).
